{"source": "patent US6787147B1", "about": "“Solar radiation protection composition” (priority 1998, dated 2004)", "origin": "cited, not measured here", "settings": "scytonemin: in vivo"}
{"substance": "scytonemin", "values": [{"measurement": "absorption maximum", "result": 370, "unit": "nm"}]}
